According to patent US11279687B2, “Compounds and compositions for the inhibition of NAMPT” (Valo Health, Inc., priority 2010, dated 2022):

Test system: A2780 cells
Assay: In-vitro cell proliferation assay (SRB), A2780 cells;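 note: viable cell number read as SRB absorbance, background from media-only wells subtracted, IC50 interpolated from percent inhibition at two bracketing compound concentrations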
Format: cell-based
Conditions: read-out: A2780 IC50, 72 hours

## O=C(NCc1cccnc1)Nc1ccc(S(=O)(=O)c2cccc(C(F)(F)F)c2)cc1
  IC50: 247 nM
